Molecular target: Apoptosis regulator Bcl-2 (Homo sapiens, UniProt P10415)
Test: Inhibition of Bcl-2 (unknown origin) by fluorescence polarization assay

Amino acid sequences for entries named in this document (tags omitted).
UniProt P10415, whole entry: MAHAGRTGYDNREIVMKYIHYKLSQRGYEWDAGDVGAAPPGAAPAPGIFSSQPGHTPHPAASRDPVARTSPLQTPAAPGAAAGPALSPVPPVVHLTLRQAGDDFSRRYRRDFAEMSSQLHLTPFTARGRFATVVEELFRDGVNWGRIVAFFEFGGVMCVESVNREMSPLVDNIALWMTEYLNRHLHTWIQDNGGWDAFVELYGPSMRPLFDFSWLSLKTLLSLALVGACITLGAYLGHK

Ki: < 1 nM
Compound: CC1(C)CCC(c2ccc(Cl)cc2)=C(CN2CCN(c3ccc(C(=O)NS(=O)(=O)c4ccc(N[C@H](CCN5CCOCC5)CSc5ccccc5)c(S(=O)(=O)C(F)(F)F)c4)cc3)CC2)C1 [NAVITOCLAX]
